In patent publication US20060051295A1 (published 2006) one finds β-galactosidase activity data, which are given here for one molecule.

Protein sequences, listed by entry. Tags and fused reporters are not part of them.
UniProt Q92731, whole entry: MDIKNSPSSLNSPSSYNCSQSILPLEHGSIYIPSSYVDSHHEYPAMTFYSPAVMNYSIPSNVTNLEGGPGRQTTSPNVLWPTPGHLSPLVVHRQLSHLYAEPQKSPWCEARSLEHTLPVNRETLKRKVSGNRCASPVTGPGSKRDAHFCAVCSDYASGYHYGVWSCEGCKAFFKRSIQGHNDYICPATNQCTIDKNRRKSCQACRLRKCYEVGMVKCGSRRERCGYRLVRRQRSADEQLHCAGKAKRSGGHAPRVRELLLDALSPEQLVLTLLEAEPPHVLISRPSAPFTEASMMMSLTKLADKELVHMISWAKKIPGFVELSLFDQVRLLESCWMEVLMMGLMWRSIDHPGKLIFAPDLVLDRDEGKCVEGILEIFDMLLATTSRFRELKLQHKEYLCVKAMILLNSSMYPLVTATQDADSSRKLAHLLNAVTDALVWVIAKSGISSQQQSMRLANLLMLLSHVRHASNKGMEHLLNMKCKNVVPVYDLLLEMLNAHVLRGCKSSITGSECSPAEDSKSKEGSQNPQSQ

One assay concerns the target ER beta (Homo sapiens, UniProt Q92731). Description: Yeast two-hybrid ER beta, no partner.
A further assay deals with ER beta / RelA (Homo sapiens, UniProt Q92731). Description: Yeast two-hybrid ER beta / RelA.
Another assay addresses ER beta / cRel (Homo sapiens, UniProt Q92731). Description: Yeast two-hybrid ER beta / cRel.

As to `C[C@]12CC[C@@H]3c4ccc(O)cc4CC[C@H]3[C@@H]1CC[C@@H]2O` [Org E2], the β-galactosidase activity came out at 164 on ER beta (E2 0.01 nM); 188 on ER beta (E2 0.1 nM); 178 at ER beta (E2 1 nM); 186 at ER beta (E2 10 nM); 188 at ER beta (E2 100 nM); 144 at ER beta / RelA (E2 0.1 nM). The β-galactosidase activity on ER beta / RelA (E2 1 nM) was 158; on ER beta / RelA (E2 10 nM), 182; on ER beta / RelA (E2 100 nM), 156; on ER beta / cRel (E2 0.01 nM), 404; at ER beta / cRel (E2 0.1 nM), 1818; on ER beta / cRel (E2 1 nM) it was 2140. For the same molecule, the β-galactosidase activity at ER beta / cRel (E2 10 nM) is given as 2656; at ER beta / cRel (E2 100 nM) it was 3216.
